## Measured melting point values of organic chemicals

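OPERA's authors assembled the values from existing databases and did not measure them anew. A listed value is a point estimate from one report or more. How each value was measured is not recorded, so precision varies. Where a salt, mixture or single isomer is drawn, the source does not say that exactly this form was tested. Some upstream entries may be estimates or bounds without being marked so.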

The melting point is given in degrees Celsius.

- Nc1ccccc1NC(=O)c1ccncc1 [N-(2-Aminophenyl)pyridine-4-carboxamide]: MP 180 °C
- Cc1c(C)c(C)c(C(=O)CCl)c(C)c1C [2-chloro-1-(pentamethylphenyl)ethanone]: MP 71 °C
- c1ccc2c(c1)NC1=NCCN12 [2,3-Dihydro-1H-benzo[d]imidazo[1,2-a]imidazole]: MP 200 °C
- CCCC[OH+][B-](F)(F)F [(1-Butanol)(trifluoro)boron]: MP -101 °C
- Nc1ccc(Br)cc1O [2-Amino-5-bromophenol]: MP 139 °C
- FC(F)(F)C(F)(F)C(F)(F)C(F)(F)C(F)(F)C(F)(F)c1ccc(-c2ccc(Br)s2)s1 [5-Bromo-5'-(tridecafluorohexyl)-2,2'-bithiophene]: MP 52.5 °C
- Nc1cccc(N2CCCC2=O)c1 [1-(3-aminophenyl)pyrrolidin-2-one]: MP 107 °C
- COCCCNC(=O)CC#N [2-cyano-N-(3-methoxypropyl)acetamide]: MP 64 °C
- BrCCOc1ccc2ccccc2c1 [2-(2-bromoethoxy)naphthalene]: MP 95 °C
- O=C(O)COc1cccc(Br)c1 [(3-bromophenoxy)acetic acid]: MP 109 °C
- O=C1CCCc2ccccc2N1 [1,3,4,5-tetrahydro-2H-1-benzazepin-2-one]: MP 130 °C
- COC(=O)Nc1cccc(O)c1 [Carbamic acid, (3-hydroxyphenyl)-, methyl ester (9CI)]: MP 96 °C
- N=C(NO)c1ccsc1 [N-Hydroxythiophene-3-carboximidamide]: MP 67 °C
- O=C1CCCc2cc(C(=O)CCl)ccc2N1 [7-(Chloroacetyl)-1,3,4,5-tetrahydro-2H-1-benzazepin-2-one]: MP 155 °C
- COc1c(Cl)cc(C(=O)O)cc1Cl [Benzoic acid, 3,5-dichloro-4-methoxy-]: MP 153 °C
- Brc1ccc(-n2cnnn2)cc1 [1-(4-bromophenyl)-1H-tetrazole]: MP 181 °C
- COc1ccc(NCc2cccs2)cc1 [4-Methoxy-N-[(thiophen-2-yl)methyl]aniline]: MP 72 °C
- O=C(O)c1c(Cl)ccc(S(=O)(=O)Cl)c1Cl [2,6-dichloro-3-chlorosulfonyl-benzoic Acid]: MP 169 °C
- O=C(O)C1CC(=O)N(c2ccccc2Cl)C1 (stereo not given) [1-(2-chlorophenyl)-5-oxopyrrolidine-3-carboxylic acid]: MP 142 °C
- Cc1cccc(NC(=O)C2CCCNC2)n1 (stereo not given) [N-(6-Methylpyridin-2-yl)piperidine-3-carboxamide]: MP 125 °C
- Nc1ccc(Oc2ccc(F)cc2)nc1 [6-(4-fluorophenoxy)pyridin-3-amine]: MP 48 °C
- CCc1cc(C)c(N=C=O)c(CC)c1N=C=O [1,3-Diethyl-2,4-diisocyanato-5-methylbenzene]: MP 17.9 °C
- Cc1cc(C(=O)O)c(N)s1 [2-Amino-5-methylthiophene-3-carboxylic acid]: MP 127 °C
- CC(O)C[N+](C)(C)C.[Cl-] (stereo not given) [1-Propanaminium, 2-hydroxy-N,N,N-trimethyl-, chloride (1:1)]: MP 165 °C
- O=C(O)c1ccc(N2C(=O)CSC2=S)cc1 [4-(4-Oxo-2-thioxo-thiazolidin-3-yl)-benzoic acid]: MP 282 °C
- COC(=O)C(=O)CC(=O)c1ccc(OC)cc1OC [methyl 4-(2,4-dimethoxyphenyl)-2,4-dioxobutanoate]: MP 102 °C
- COC(=O)c1cc2ccc(OCc3ccccc3)cc2[nH]1 [methyl 6-(benzyloxy)-1H-indole-2-carboxylate]: MP 137 °C
- O=C(O)CCCn1c(=O)oc2ccccc21 [4-(2-Oxo-benzooxazol-3-yl)-butyric acid]: MP 142 °C
- CC(C)(C)N(NC(=O)c1ccccc1)C(=O)c1c(F)c(F)c(F)c(F)c1F [N'-Benzoyl-N-tert-butyl-2,3,4,5,6-pentafluorobenzohydrazide]: MP 200 °C
- Nc1nc(-c2ccncc2)cs1 [4-Pyridin-4-yl-thiazol-2-ylamine]: MP 173 °C
- CCN(CC)S(=O)(=O)c1cccc(C(=O)O)c1 [3-(Diethylsulfamoyl)benzoic acid]: MP 165 °C
- CC(Cl)C(=O)NC(C)c1ccccc1 (stereo not given) [2-chloro-N-(1-phenylethyl)propanamide]: MP 90 °C
- O=C(O)CNC(=O)c1ccc(F)cc1 [n-(4-fluorobenzoyl)glycine]: MP 170 °C
- Nc1ccccc1C(=O)NC1CC1 [2-amino-N-cyclopropylbenzamide]: MP 136 °C
- Clc1ccc(-c2cc(CBr)on2)cc1 [Isoxazole, 5-bromomethyl-3-(p-chlorophenyl)-]: MP 117 °C
- Cc1nc(Cc2ccccc2)sc1C(=O)O [2-benzyl-4-methyl-1,3-thiazole-5-carboxylic acid]: MP 237 °C
- CNCc1cccc(O)c1 [3-[(methylamino)methyl]phenol]: MP 145 °C
- O=C1NC(=O)C2(CCNCC2)N1 [1,3,8-triazaspiro[4.5]decane-2,4-dione]: MP 245 °C
- C[Si](Cl)(Cl)CCC(F)(F)F [Silane, dichloromethyl(3,3,3-trifluoropropyl)-]: MP -67.65 °C
- CN(C)c1ccc(CNC(=O)CCl)cc1 [2-chloro-N-[4-(dimethylamino)benzyl]acetamide]: MP 60 °C
- CN1C(=O)N(C)C(O)C1O (stereo not given) [4,5-Dihydroxy-1,3-dimethylimidazolidin-2-one]: MP 130 °C

Values as listed in the OPERA 2.9 repository of K. Mansouri.